The values that follow are results of earlier work, collected in patent US20050158405A1, “Personal decontaminant” (published 2005).

One data set has as its system hydrophilic viruses. Particulars: according to APIC.
In another data set the test system is spores. Particulars: according to APIC.

Structures are written as SMILES.

For `CC(C)O`, the “ability to kill hydrophilic viruses” value with hydrophilic viruses was “lacks the ability to kill hydrophilic viruses”. Also, the sporicidal activity result with spores is “lack sporicidal activity”.
For `CCO`, in the data set with spores, the sporicidal activity entry is recorded as “lack sporicidal activity”.
